# Data: US20170304460A1, “METHOD OF CONJUGATING A POLYPEPTIDE” (MedImmune, LLC, priority 2014, published 2017)
# How the values were obtained:
# Format in all cases: physicochemical
# [1] = x-Thiosuccinimide hydrolysis for PEG-biotin T289C mAb conjugates in the presence of sodium molybdate; conditions: 1 hr, 100 mM molybdate
# [2] = Thiosuccinimide hydrolysis kinetics for x-maleimide-PEG-biotin T289C mAb conjugates; conditions: PEG-biotin conjugates at mAb position T289C
# Method: x-Maleimide-PEG-biotin mAb conjugates were incubated in buffer solutions and monitored by LC/MS over time to observe thiosuccinimide hydrolysis. First, mAb containing the T289C Fc mutation (0.75 mg, 5 nmol, 1 eq) was reacted with x-maleimide-PEG-biotin (50 nmol, 5 mL of a 10 mM stock in DMAC, 10 eq) in 577 mL PBS, pH 7.2. The conjugation reaction was allowed to proceed for 5 minutes and then quenched with N-acetyl cysteine (500 nmol, 4 mL of 100 mM stock in water, 100 eq) and further incubated for 5 minutes. The reaction mixture was then combined with PBS containing 0.5 mM EDTA and 1M sodium phosphate at the desired pH to achieve final concentrations of 0.65 mg/mL mAb, 100 mM phosphate, 0.5 M EDTA and 150 mM NaCl. After sample preparation, an aliquot was removed and diluted 1:3 with 75 mM phosphate buffer pH 5.5 to obtain an initial time point sample. Samples were then further incubated at the desired conditions with aliquots removed at determined time points. All samples were immediately diluted 1:3 with 75 mM phosphate buffer pH 5.5 to stop the hydrolysis reaction. Samples were then sterile filtered, reduced with TCEP, and analyzed by LC/MS. Thiosuccinimide hydrolysis was confirmed by addition of 18 amu to the mAb conjugate peak in the mass spectrum. Semi-quantitative analysis of hydrolysis was performed using peak intensities in deconvoluted mass spectra and equation 3, which includes background subtraction using the T=0 measurement. […]
# (§1) Thiosuccinimide hydrolysis data were also analyzed in units of molar concentration to determine kinetic constants. Pseudo 1st order rate constants were determined from the slopes of curves generated from plotting ln [maleimide] versus time and linear regression analysis.
# as §1
# [3] = BME challenge assay: sensitivity of PEG-biotin T289C mAb conjugates to thiol exchange in buffer containing thiols; conditions: for Psuedo first order rate constant (kobs), thiosuccinimide hydrolysis: pH 7.2, 37° C.
# Method: Biotin-mAb conjugates were incubated in aqueous buffer containing β-mercaptoethanol (BME) to challenge the thiosuccinimide linkage against deconjugation. x-Maleimide-PEG-biotins were conjugated to mAb containing the T289C mutation as described above with minor modification. Conjugation reactions were performed at 1 equivalent x-PEG-maleimide:thiol for 15 min at 22° C. followed immediately by dilution to 0.2 mg/mL (1.33 μM mAb) with 1×PBS pH 7.2 containing 0.5 mM EDTA. The N-acetyl cysteine quenching step was omitted. For BME-containing samples, BME was added to a final concentration of 1% v/v (143 mM). Samples were further incubated at 37° C. under ambient atmosphere without stirring. Aliquots were removed at various time points, sterile filtered, reduced with DTT and then analyzed by LC/MS. Percent conjugated mAb and thiosuccinimide hydrolysis were determined from peak heights of mass spectra using Equation 1 and Equation 2, respectively. Deconjugated mAb and thiosuccinimide hydrolysis data were plotted as ln [concentration] vs. time (s) to obtain the pseudo-first order rate constants from the slope of the bestfit line.
# [4] = Stability of mAb-biotin conjugates in the presence of free thiol (BME) after mild hydrolysis; conditions: PEG-biotin T289C mAb conjugates after mild hydrolysis (pH 8.6, 37° C., 1 hr)
# Method: Biotin-mAb conjugates were incubated in aqueous buffer containing β-mercaptoethanol (BME) to challenge the thiosuccinimide linkage against deconjugation. In this experiment, thiosuccinimide conjugates were subjected to a brief incubation at mildly basic conditions to facilitate thiosuccinimide hydrolysis before the stability challenge. x-Maleimide-PEG-biotins were conjugated to mAb containing the T289C mutation as described above with minor modification. Conjugation reactions were performed at 1 equivalent x-PEG-maleimide:thiol for 15 min at 22° C. followed quenching with N-acetyl cysteine (100 eq rel. to mAb) and further reaction for 5 minutes. Reaction mixtures were adjusted to pH 8.6 by addition of 10% v/v sodium phosphate (1M, dibasic) and then incubated at 37° C. for 1 hr. Reactions were then dialyzed against PBS (pH 7.2) containing 0.5 mM EDTA for 24 hr at 4° C. After dialysis, mAb concentrations were confirmed by A280 measurement (NanoDrop) and samples were diluted to 0.2 mg/mL (1.33 μM mAb) with 1×PBS pH 7.2 containing 0.5 mM EDTA. For BME-containing samples, BME was added to a final concentration of 1% v/v (143 mM). […] Aliquots were removed at various time points, sterile filtered, reduced with DTT and then analyzed by LC/MS. Percent conjugated mAb and thiosuccinimide hydrolysis was determined from peak heights of mass spectra using Equation 1 and Equation 2, respectively. […]
substance,measurement,setting,value
N-fluorophenyl thiosuccinimide,Relative Hydrolysis (+sodium molybdate/−sodium molybdate),"[1]; pH 5.5, 22° C.",52
same,Relative Hydrolysis (+sodium molybdate/−sodium molybdate),"[1]; pH 7.4, 22° C.",2.2
same,Relative Hydrolysis (+sodium molybdate/−sodium molybdate),"[1]; pH 8.6, 22° C.",1
same,"Psuedo first order rate constant (kobs), thiosuccinimide hydrolysis","[2]; pH 7.4, 22° C.",4.6e-05 s⁻¹
same,"Psuedo first order rate constant (kobs), thiosuccinimide hydrolysis","[2]; pH 7.4, 37° C.",0.00028 s⁻¹
same,"Psuedo first order rate constant (kobs), thiosuccinimide hydrolysis","[2]; pH 8.6, 22° C.",0.00049 s⁻¹
same,Initial hydrolysis,[3]; no pre-hydrolysis,<1%
same,"Psuedo first order rate constant (kobs), thiosuccinimide hydrolysis",[3]; +BME,>3.3e-05 s⁻¹
same,"Psuedo first order rate constant (kobs), thiosuccinimide hydrolysis",[3]; no BME,>3.1e-05 s⁻¹
same,Initial hydrolysis,[4],96%
